Test system: CYP3A
Details: in vivo

## 1β-hydroxy-deoxycholic acid/total deoxycholic acid ratio [1β-OH-DCA/ToDCA]
human, 100 mg
  half-life of urinary 1β-OH-DCA/ToDCA: four
  t1/2 of urinary 1β-OH-DCA/ToDCA UMR, elimination curve: 96 h
  t1/2 of urinary 1β-OH-DCA/ToDCA UMR, recovery curve: 101 h
